Assay results reported in patent US20250297233A1, “GENETICALLY ENCODED SYSTEMS FOR GENERATING OXYGEN IN LIVING EUKARYOTIC CELLS” (The General Hospital Corporation, priority 2022, published 2025).

Experiments:
HeLa cells [1] = conditions: 3 days
HeLa cells [2] = system: HeLa cells

sodium chlorite
three-day toxicity with NdCld co-expression (HeLa cells [1]; HeLa cells expressing NdCld+NIS, FIG. 3D): could be attenuated | three-day toxicity in cells expressing NdCld (HeLa cells [1]; HeLa cells expressing NdCld, FIG. 3B): toxicity was alleviated | change in three-day toxicity on expression of human NIS (HeLa cells [1]; HeLa cells expressing human NIS, FIG. 3C): five-fold increase | viability four hours after exposure (HeLa cells [2]; 30 minute exposure to high dose chlorite, FIG. 7): no dimunition in viability | viability during Seahorse experiments (HeLa cells [2]; one hour after addition of the highest doses of chlorite, FIG. 6C): remained viable
